## Antibody variant affinities, Ab-14 light chain, assay B

Binding partner: SARS-CoV-2 spike HR2 peptide, sequence PDVDLGDISGINAS.

Parent: Ab-14, a human scFv built as VH, a (GGGGS)3 linker, VL. Only the CDRs of the light chain vary.
VH: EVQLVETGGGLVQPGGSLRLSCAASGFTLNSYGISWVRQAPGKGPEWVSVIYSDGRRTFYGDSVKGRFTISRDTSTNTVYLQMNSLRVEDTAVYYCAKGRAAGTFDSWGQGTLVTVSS
VL: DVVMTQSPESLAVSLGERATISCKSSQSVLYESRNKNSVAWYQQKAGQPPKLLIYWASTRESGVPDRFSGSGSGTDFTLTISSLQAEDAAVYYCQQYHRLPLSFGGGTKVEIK

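Designed CDR sequences, proposed from the first random library and measured here. Several design methods are mixed in this list. The assay is AlphaSeq: two haploid yeast populations carry antibody and antigen on their surface. After mating in shaken culture at 30 °C for 16 h, diploids were selected and their barcode pairs sequenced. Read counts were normalised to the haploid input and turned into Kd by a linear fit to BCL2-family pairs of known affinity, for each replicate. The assay was run in six technical replicates.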

Substitutions are numbered in sequence along the VL above, starting at 1 (not Kabat). This list holds designs with at most six substitutions. Values are apparent Kd, the geometric mean of the replicates that gave a signal; lower means stronger binding. An entry "nd" has no value in the source: the pair was not observed among the diploids in any replicate. This suggests poor binding but is not conclusive. The parent sequence was in this pool as ten entries: three were never detected, three once, and four in most replicates, with averages from 2.2 nM to 240 nM. The range of this assay differs from that of the first round, and the authors advise against merging the two. The authors' rule: three or more of the six replicates give a measured affinity, fewer mean a poor binder. Nonspecific signal, from three strains lacking the peptide, appeared in 4% of pairings of all light chain designs, centred on 430 nM (5% of these signals below 38 nM); values are not corrected for it.

The variant S25D Q27Y E61I showed 36 nM (6 of 6 replicates). The variant V29W K36F N37W W56D showed 7.0 nM (6 of 6 replicates). The variant S25V Q27P R34H W56N E61M showed 1.1 nM (6 of 6 replicates). With S25V Q27I V29Y Y31G S33K W56E the result was 1.4 nM (6 of 6 replicates). For S25L S33Q W56N Q96D, the assay gave 920 pM (6 of 6 replicates). The variant S25L W56E E61C S62M showed 710 pM (6 of 6 replicates). For Q27P S33G L102E, the assay gave nd (0 of 6 replicates). For S62M Y97V, the assay gave nd (0 of 6 replicates). With S25L V29N W56N T59Q E61C the result was 3.5 nM (6 of 6 replicates).

For S25L N35L W56E, the assay gave 2.2 nM (6 of 6 replicates). With S25L V29T E32D R34L H98K the result was 190 nM (5 of 6 replicates). The variant S33Q K36F Q96K gave 450 nM (2 of 6 replicates). For Y31D R34S A57C S103D, the assay gave 67 nM (3 of 6 replicates). With V29D Y31E H98R the result was 21 nM (4 of 6 replicates). With S25L Q27G V29Q W56N H98R the result was 250 pM (6 of 6 replicates). The variant S25L S26R V29T L30G K36Q gave 14 nM (6 of 6 replicates). The variant S25L V29D K36W W56N showed 700 pM (6 of 6 replicates). The variant S25L V29F W56N S62E gave 2.5 nM (6 of 6 replicates).

For S25L Q27E V29E W56H, the assay gave 2.0 nM (6 of 6 replicates). The variant S25Q L30T R34S S38P S58Y H98A showed 870 nM (2 of 6 replicates). With Q27I V29Y R34P W56N the result was 1.0 nM (6 of 6 replicates). With S25L S28G W56G the result was 840 pM (6 of 6 replicates). The variant S25V V29F W56N T59Q showed 620 pM (6 of 6 replicates). With S25L S26R V29T K36Q S62D the result was 13 nM (6 of 6 replicates). The variant K24Y S25L W56G gave 520 pM (6 of 6 replicates). For S25L N35M W56D T59Q, the assay gave 430 pM (6 of 6 replicates). The variant S25L Y31M E32Q W56E gave 580 pM (6 of 6 replicates).

With S25L V29M L30P W56N T59Q the result was 580 pM (6 of 6 replicates). With Q27D L30E Y97T the result was nd (0 of 6 replicates). For S25V S26L L30V S33E W56H S62A, the assay gave 52 nM (5 of 6 replicates). With S25F V29P N35T S38A W56N the result was 940 pM (6 of 6 replicates). The variant S25A N35P K36E gave nd (0 of 6 replicates). The variant S25F S26M V29M L30G W56E E61S gave 2.2 nM (6 of 6 replicates). With V29F Y31V W56G R99A P101T the result was 16 nM (6 of 6 replicates). With S25F Q27I V29Y W56E S103M the result was 1.0 nM (6 of 6 replicates). With S25T S26E Q27V V29E W56N T59E the result was 640 pM (6 of 6 replicates).

The variant Y31G N37D S38A showed 41 nM (3 of 6 replicates). The variant S25L V29Q N35M W56N showed 120 nM (1 of 6 replicates). The variant S25L S26V W56N T59Y gave 1.5 nM (6 of 6 replicates). The variant Q27I V29Y R34M W56Q showed 2.1 nM (6 of 6 replicates). With H98W P101Y the result was 900 pM (1 of 6 replicates). With N37Y S38A the result was nd (0 of 6 replicates). The variant S25V V29E S38N W56E showed 5.7 nM (6 of 6 replicates). The variant S25L S26E V29R L30N W56N gave 1.7 nM (6 of 6 replicates). The variant S25L S26Q L30Q W56N showed 680 pM (6 of 6 replicates).

The variant S25L Q27G L30M W56E gave 510 pM (6 of 6 replicates). With S25C S26Q S38N W56H S62D the result was 1.1 nM (6 of 6 replicates). The variant K36D N37P W56S showed 7.1 nM (6 of 6 replicates). The variant S28D W56E S62H P101C L102V gave 1.1 nM (6 of 6 replicates). The variant Q27P Y31F W56D E61S gave 850 pM (6 of 6 replicates). The variant S25L S26Q Q27G V29Q W56N showed 880 pM (6 of 6 replicates). The variant Q27W Y31T W56D E61S showed 2.3 nM (6 of 6 replicates).

Top 3 of the variants detected in all replicates, tightest first:

changes	Kd	seen in
S25L Q27G V29Q W56N H98R	250 pM	6/6
S25L N35M W56D T59Q	430 pM	6/6
S25L Q27G L30M W56E	510 pM	6/6

From the AlphaSeq antibody data of Li et al. 2023 (doi:10.1038/s41467-023-39022-2), copy in the FLAb collection.